The nature of the data set: Solubility of the formulation components in water and alcohol. Format: physicochemical. To be noted: 200 proof ethanol, filtered through a 0.45 micrometer PTFE filter.

SMILES strings stand for the structures.

In the case of `O=S(=O)([O-])c1ccc(N=Nc2c(O)ccc3cc(S(=O)(=O)[O-])ccc23)cc1.[Na+].[Na+]` [FD&C Yellow #6], the “Alcohol Solubility (Tested)” value is on record as “Yes”.

The values are drawn from US9707184B2, “Immediate release abuse deterrent liquid fill dosage form” (priority 2014, dated 2017).
